Data published in ChEMBL document CHEMBL3886972, “Chemical entities” (2016).

How the values were obtained:
[1] = target: DNA-dependent protein kinase catalytic subunit (Homo sapiens, UniProt P78527); test: ADP Hunter Plus Assay: The kinase activity was measured by using the commercial ADP Hunter Plus assay available from DiscoveRx (#90-0083), which is a homogeneous assay to measure the accumulation of ADP, a universal product of kinase activity. The enzyme, DNA-PK was purchased from Promega (#V5811). The assay was done following the manufacturer recommendations with slight modifications: Mainly the kinase buffer was replace by 15 mM HEPES, pH 7.5, 10 mM MgCl2, 20 mM NaCl, 1 mM EGTA, 0.1 mg/mL BGG, 0.02% Tween 20. The DNA-PK was assayed in a titration experiment to determine the optimal protein concentration for the inhibition assay. To calculate the […] of the Compounds, serial 1:3 dilutions of the compounds were added to the enzyme at a fixed concentration (2 U/uL). The enzyme was preincubated with the inhibitor and 200 uM DNA substrate and then ATP was added to a final 75 uM concentration. Reaction was carried out for 1 hour at 37° C. Reagent A and B were sequentially added to the wells and plates were incubated for 30 min at RT. Fluorescence counts were read in a EnVision instrument (Perkin Elmer) with the recommended settings (550 and 590 nm as excitation and emission wavelengths, respectively).
[2] = target: Serine/threonine-protein kinase mTOR (Homo sapiens, UniProt P42345); test: LanthaScreen Kinase Activity Assay: The enzymatic mTOR activity was measured using a LanthaScreen kinase activity assay (Invitrogen). The enzyme was purchased from Invitrogen (PV4754), as well as the GFP-labelled substrate (4EBP1-GFP; PV4759) and the Tb-antip4EBP1(pThr46) antibody (PV4757). […] After 1 h incubation at room temperature, 20 mM EDTA was used to stop the reaction and terbium-labelled antibody (4 nM) added to detect phosphorylated product. The antibody associates with the phosphorylated product resulting in an increased TR-FRET value.

SMILES | pIC50 [1] | pIC50 [2]
CS(=O)(=O)C1(c2nc(-c3cccc4[nH]ccc34)nc3c2OC[C@H]2COCCN32)CCOCC1 | 5.00 | 
CS(=O)(=O)C1(c2nc(-c3cccc4[nH]ccc34)nc3c2OCC2COCCN32)CCOCC1 (stereo not given) | ≤ 4.60 | 5.57
CS(=O)(=O)C1(c2nc(-c3cccc4[nH]ccc34)nc3c2OC[C@@H]2COCCN32)CCOCC1 |  | 5.73
CC(C)(c1nc(-c2cccc3[nH]ccc23)nc2c1OCC[C@H]1COCCN21)S(C)(=O)=O | 5.00 | 

pIC50: −log10 of the molar value.
